# Experimental data reported in patent publication US20090124688A1, “Prostaglandin reductase inhibitors” (priority 2006, published 2009).
# Tested on: 3T3-L1 cells
# Assay: Glucose transport assay, uptake of 2-deoxy-D-[3H]glucose in differentiated 3T3-L1 cells
# Assay type: cell-based, mouse
# Details: insulin treatment alone, 100 nM
# Method: The effect of compound 28 on insulin sensitivity was examined as follows. 3T3-L1cells were induced to differentiate in the same manner as described above. A glucose transport assay was performed by measuring uptake of 2-deoxy-D-[3H]glucose as described by Fingar et al. See Fingar et al., Endocrinology 134:728-735. 1.67 μM of the compound or 45 nM of a PPARs agonist, i.e., Avandia, was added to the cells. 10 μM cytochalasin-B was used to measure background glucose uptake levels. 100 nM of insulin was used to stimulate glucose uptake. Insulin treatment alone in differentiated 3T3-L1 cells increased glucose uptake by 20 folds. In the presence of compound 27, glucose uptake was increased by 30 folds.
substance,measurement,value
Insulin,increase of glucose uptake,20 folds
